Assay: Gelation ability in water and organic solvents (inverted tube, visual)
Type: physicochemical
Details: ten solvents tested (water, polar and nonpolar organic solvents)
Procedure: Typically, a gelator (0.01-2 mg) in a required solvent (0.1-1 mL) was heated until the solid was completely dissolved. The resulting solution was slowly allowed to cool to room temperature and gelation was visually observed. […] All gels obtained were thermally reversible. Above their gelation temperature, the gels dissolved in water but could be returned to their original gel state upon cooling.
Typically, the gelator (0.01-2 mg) and required solvent (0.1-1 mL) were placed into a 2 mL scintillation vial, which was then sealed with a screw cap. The vial was heated and shook until the solid was completely dissolved. The solution was set aside and allowed to cool to room temperature. Gelation was considered to have occurred when no gravitational flow in the inverted tube was observed.

## Amygdalin Butyrate [derivative 1]
  number of solvents gelled: two solvents out of ten
